For the test, the target named is human recombinant Btk (Homo sapiens, UniProt Q06187). Description: Human Recombinant Btk Enzyme Assay. The test is classed as biochemical. The note with it: read-out: IC50 for Inhibition of Btk; human recombinant Btk 1 nM, ATP 20 μM, 60 min at room temperature.

Chains of the proteins cited; added tags and fusions are not shown.
UniProt Q06187, whole entry: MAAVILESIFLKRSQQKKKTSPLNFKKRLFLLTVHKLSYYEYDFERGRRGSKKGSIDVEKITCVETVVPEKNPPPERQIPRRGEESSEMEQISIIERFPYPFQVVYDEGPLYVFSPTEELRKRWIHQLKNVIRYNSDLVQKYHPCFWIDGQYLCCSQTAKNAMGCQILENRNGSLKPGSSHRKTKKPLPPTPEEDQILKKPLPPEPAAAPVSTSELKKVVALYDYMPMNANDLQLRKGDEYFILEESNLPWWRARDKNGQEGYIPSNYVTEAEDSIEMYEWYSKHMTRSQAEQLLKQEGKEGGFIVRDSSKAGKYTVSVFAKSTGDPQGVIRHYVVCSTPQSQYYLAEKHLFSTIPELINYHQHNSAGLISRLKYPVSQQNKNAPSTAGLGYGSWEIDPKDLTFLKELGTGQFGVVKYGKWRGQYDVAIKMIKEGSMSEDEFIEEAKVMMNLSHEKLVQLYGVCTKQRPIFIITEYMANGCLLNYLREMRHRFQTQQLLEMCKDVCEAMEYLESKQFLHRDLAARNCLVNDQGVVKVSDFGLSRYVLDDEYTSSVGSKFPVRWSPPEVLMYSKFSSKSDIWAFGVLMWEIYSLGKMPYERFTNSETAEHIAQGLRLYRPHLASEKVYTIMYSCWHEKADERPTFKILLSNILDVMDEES

Turning to `Cc1nc(N(C(=O)OC(C)(C)C)C(=O)OC(C)(C)C)sc1-c1ccc(C(N)=O)c2[nH]c3c(c12)CCC(C(=O)NC1CCOCC1)C3` (stereo not shown), the IC50 came to 1800 nM.

By IC50 is commonly meant the concentration needed to halve the response being measured.
